Measured values reported in patent US7195897B2, “Feedback-resistant homoserine transsuccinylases having a modified c-terminus” (priority 2002, dated 2007).

Chains of the proteins cited; added tags and fusions are not shown.
UniProt P07623, whole entry, looked up, stated change not applied: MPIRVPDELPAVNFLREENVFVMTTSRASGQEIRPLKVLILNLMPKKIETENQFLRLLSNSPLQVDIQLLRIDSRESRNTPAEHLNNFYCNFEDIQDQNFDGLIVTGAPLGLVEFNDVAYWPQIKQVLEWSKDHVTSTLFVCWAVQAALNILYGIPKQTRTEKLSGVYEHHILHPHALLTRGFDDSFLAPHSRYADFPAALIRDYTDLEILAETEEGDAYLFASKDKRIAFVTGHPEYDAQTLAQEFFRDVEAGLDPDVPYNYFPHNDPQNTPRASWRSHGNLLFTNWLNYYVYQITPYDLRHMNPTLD

What was measured:
[1] = target: T1, E. coli homoserine transsuccinylase (MetA) variant of plasmid pBaBmetAext2, amino acids from 297 onwards SerTyrIleHisGlnTyrLeuLeuValAsnAsnSerThrGluLeuTrpMetHisT (Escherichia coli, UniProt P07623, DELINS297-309SYIHQYLLVNNSTELWMHTRLIKRPHCDEWQGGA); assay: Homoserine transsuccinylase activity in cell extract, inhibition by L-methionine (decrease in extinction at 232 nm); details: activity without L-methionine = 100%, pH 7.6, 1 mM homoserine, 0.1 mM succinyl-CoA
[2] = target: E. coli homoserine transsuccinylase (MetA) variant of plasmid pBaBmetAext, amino acids from 297 onwards SerTyrIleHisHisTyrLeuLeuValAsnAsnSerThrGluLeuTrpMetHisTh (Escherichia coli, UniProt P07623, DELINS297-309SYIHHYLLVNNSTELWMHTRLIKRPHCDEWQGGA); assay: Homoserine transsuccinylase activity in cell extract, inhibition by SAM (DTNB, absorption at 412 nm); details: activity without SAM = 100%, pH 7.5, 3 mM homoserine, 0.3 mM succinyl-CoA
[3] = target: T1, E. coli homoserine transsuccinylase (MetA) variant of plasmid pBaBmetAext2, amino acids from 297 onwards SerTyrIleHisGlnTyrLeuLeuValAsnAsnSerThrGluLeuTrpMetHisT; assay: as above; details: activity without SAM = 100%, pH 7.5, 3 mM homoserine, 0.3 mM succinyl-CoA

SMILES | Activity (%) in the presence of 1 mM L-methionine [1] | Activity (%) in the presence of 1 mM SAM [2] | Activity (%) in the presence of 1 mM SAM [3]
CSCC[C@H](N)C(=O)O [L-methionine] | 90% |  | 
C[S+](CC[C@H](N)C(=O)[O-])C[C@H]1O[C@@H](n2cnc3c(N)ncnc32)[C@H](O)[C@@H]1O (stereo partly drawn) [SAM, S-Adenosylmethionine] |  | 75% | 99%
